Earlier results in patent US9173950B2, “Vitamin D-ghrelin conjugates” (Extend Biosciences, Inc., priority 2012, dated 2015).

Settings: humans; cited from earlier work

vitamin D
time retained in circulation by DBP, on average: 30 days
